Activity calls are given as the source filed them. No cut-off for these calls is given here.
Assays:
[1] = target: Acetylcholinesterase (Homo sapiens) (UniProt P22303); experiment: Reactivation of tabun-inhibited human erythrocytic AChE using acetylthiocholine iodide as substrate by Ellman spectrophotometric method relative to control
[2] = target: Acetylcholinesterase (Homo sapiens) (UniProt P22303); experiment: Reactivation of sarin-inhibited human recombinant AChE using acetylthiocholine iodide as substrate assessed as overall second-order reactivation rate by Ellman spectrophotometric method
[3] = target: Acetylcholinesterase (Homo sapiens) (UniProt P22303); experiment: Reactivation of VX-inhibited AChE in whole human blood assessed as VX degradation at 0.1 mM after 45 mins by spectrophotometric analysis; set-up: scale not given: the % may be the effect or the level left
[4] = target: Acetylcholinesterase (Homo sapiens) (UniProt P22303); experiment: Reactivation of sarin-inhibited human recombinant AChE using acetylthiocholine iodide as substrate by Ellman spectrophotometric method relative to control
[5] = target: Cholinesterase (Homo sapiens) (UniProt P06276); experiment: Reactivation of sarin-inhibited BChE in whole human blood assessed as sarin degradation at 0.1 mM after 90 mins by spectrophotometric analysis; set-up: scale not given: the % may be the effect or the level left
[6] = target: Acetylcholinesterase (Homo sapiens) (UniProt P22303); experiment: Reactivation of sarin-inhibited human recombinant AChE using acetylthiocholine iodide as substrate assessed as time required for maximal percentage of reactivation by Ellman spectrophotometric method
[7] = target: Acetylcholinesterase (Homo sapiens) (UniProt P22303); experiment: Reactivation of VX-inhibited human recombinant AChE using acetylthiocholine iodide as substrate assessed as overall second-order reactivation rate by Ellman spectrophotometric method
[8] = target: Cholinesterase (Homo sapiens) (UniProt P06276); experiment: Reactivation of VX-inhibited BChE in whole human blood assessed as VX degradation at 0.1 mM after 30 to 60 secs by spectrophotometric analysis; set-up: scale not given: the % may be the effect or the level left
[9] = target: T1, Cholinesterases; ACHE & BCHE (Homo sapiens) (UniProt P06276+P22303); experiment: Selectivity ratio of Ki for human plasma BChE to Ki for human erythrocytic AChE
[10] = target: Acetylcholinesterase (Homo sapiens) (UniProt P22303); experiment: Reactivation of cyclosarin-inhibited human recombinant AChE using acetylthiocholine iodide as substrate assessed as time required for maximal percentage of reactivation by Ellman spectrophotometric method
[11] = target: Cholinesterase (Homo sapiens) (UniProt P06276); experiment: Reactivation of sarin-inhibited BChE in whole human blood assessed as sarin degradation at 0.1 mM after 30 to 60 secs by spectrophotometric analysis; set-up: scale not given: the % may be the effect or the level left
[12] = target: Acetylcholinesterase (Homo sapiens) (UniProt P22303); experiment: Reactivation of cyclosarin-inhibited human recombinant AChE using acetylthiocholine iodide as substrate by Ellman spectrophotometric method relative to control
[13] = target: Cholinesterase (Homo sapiens) (UniProt P06276); experiment: Reactivation of VX-inhibited BChE in whole human blood assessed as VX degradation at 0.1 mM after 45 mins by spectrophotometric analysis; set-up: scale not given: the % may be the effect or the level left
[14] = target: Acetylcholinesterase (Homo sapiens) (UniProt P22303); experiment: Reactivation of cyclosarin-inhibited human recombinant AChE using acetylthiocholine iodide as substrate assessed as overall second-order reactivation rate by Ellman spectrophotometric method
[15] = target: Acetylcholinesterase (Homo sapiens) (UniProt P22303); experiment: Reactivation of sarin-inhibited human recombinant AChE using acetylthiocholine iodide as substrate assessed as maximal first-order reactivation rate by Ellman spectrophotometric method
[16] = target: Acetylcholinesterase (Homo sapiens) (UniProt P22303); experiment: Reactivation of sarin-inhibited AChE in whole human blood assessed as sarin degradation at 0.1 mM after 30 to 60 secs by spectrophotometric analysis; set-up: scale not given: the % may be the effect or the level left
[17] = target: Acetylcholinesterase (Homo sapiens) (UniProt P22303); experiment: Reactivation of VX-inhibited human recombinant AChE using acetylthiocholine iodide as substrate assessed as time required for maximal percentage of reactivation at 500 uM by Ellman spectrophotometric method
[18] = target: Acetylcholinesterase (Homo sapiens) (UniProt P22303); experiment: Reactivation of VX-inhibited human recombinant AChE using acetylthiocholine iodide as substrate assessed as maximal first-order reactivation rate by Ellman spectrophotometric method
[19] = target: Acetylcholinesterase (Homo sapiens) (UniProt P22303); experiment: Reactivation of cyclosarin-inhibited human recombinant AChE using acetylthiocholine iodide as substrate assessed as maximal first-order reactivation rate by Ellman spectrophotometric method
[20] = target: Acetylcholinesterase (Homo sapiens) (UniProt P22303); experiment: Reactivation of VX-inhibited human recombinant AChE using acetylthiocholine iodide as substrate assessed as dissociation constant of conjugated enzyme-oxime complex by Ellman spectrophotometric method
[21] = target: Acetylcholinesterase (Homo sapiens) (UniProt P22303); experiment: Reactivation of tabun-inhibited human erythrocytic AChE using acetylthiocholine iodide as substrate assessed as maximal first-order reactivation rate by Ellman spectrophotometric method
[22] = target: Acetylcholinesterase (Homo sapiens) (UniProt P22303); experiment: Reactivation of sarin-inhibited AChE in whole human blood assessed as sarin degradation at 0.1 mM after 90 mins by spectrophotometric analysis; set-up: scale not given: the % may be the effect or the level left
[23] = target: Acetylcholinesterase (Homo sapiens) (UniProt P22303); experiment: Reactivation of sarin-inhibited human recombinant AChE using acetylthiocholine iodide as substrate assessed as dissociation constant of conjugated enzyme-oxime complex by Ellman spectrophotometric method
[24] = target: Acetylcholinesterase (Homo sapiens) (UniProt P22303); experiment: Reactivation of VX-inhibited human recombinant AChE at 500 uM using acetylthiocholine iodide as substrate by Ellman spectrophotometric method relative to control
[25] = target: Acetylcholinesterase (Homo sapiens) (UniProt P22303); experiment: Reactivation of cyclosarin-inhibited human recombinant AChE using acetylthiocholine iodide as substrate assessed as dissociation constant of conjugated enzyme-oxime complex by Ellman spectrophotometric method
[26] = target: Acetylcholinesterase (Homo sapiens) (UniProt P22303); experiment: Reactivation of tabun-inhibited human erythrocytic AChE using acetylthiocholine iodide as substrate assessed as overall second-order reactivation rate by Ellman spectrophotometric method
[27] = target: Acetylcholinesterase (Homo sapiens) (UniProt P22303); experiment: Reactivation of tabun-inhibited human erythrocytic AChE using acetylthiocholine iodide as substrate assessed as time required for maximal percentage of reactivation by Ellman spectrophotometric method
[28] = target: Acetylcholinesterase (Homo sapiens) (UniProt P22303); experiment: Reactivation of tabun-inhibited human erythrocytic AChE using acetylthiocholine iodide as substrate assessed as dissociation constant of conjugated enzyme-oxime complex by Ellman spectrophotometric method
[29] = target: Acetylcholinesterase (Homo sapiens) (UniProt P22303); experiment: Reactivation of VX-inhibited AChE in whole human blood assessed as VX degradation at 0.1 mM after 30 to 60 secs by spectrophotometric analysis; set-up: scale not given: the % may be the effect or the level left
[30] = target: Cholinesterase (Homo sapiens) (UniProt P06276); experiment: Reactivation of cyclosarin-inhibited BChE in whole human blood assessed as cyclosarin degradation at 0.1 mM after 5 mins by spectrophotometric analysis
[31] = target: Acetylcholinesterase (Homo sapiens) (UniProt P22303); experiment: Reactivation of sarin-inhibited AChE in whole human blood assessed as sarin degradation at 0.1 mM after 10 mins by spectrophotometric analysis
[32] = target: Acetylcholinesterase (Homo sapiens) (UniProt P22303); experiment: Reactivation of cyclosarin-inhibited AChE in whole human blood assessed as cyclosarin degradation at 0.1 mM after 5 mins by spectrophotometric analysis
[33] = target: Acetylcholinesterase (Homo sapiens) (UniProt P22303); experiment: Reactivation of VX-inhibited human recombinant AChE at 200 uM using acetylthiocholine iodide as substrate by Ellman spectrophotometric method relative to control
[34] = target: Cholinesterase (Homo sapiens) (UniProt P06276); experiment: Reactivation of sarin-inhibited BChE in whole human blood assessed as sarin degradation at 0.1 mM after 10 mins by spectrophotometric analysis
[35] = target: Cholinesterase (Homo sapiens) (UniProt P06276); experiment: Reactivation of VX-inhibited BChE in whole human blood assessed as VX degradation at 0.1 mM after 10 mins by spectrophotometric analysis
[36] = target: Acetylcholinesterase (Homo sapiens) (UniProt P22303); experiment: Reactivation of VX-inhibited human recombinant AChE using acetylthiocholine iodide as substrate assessed as time required for maximal percentage of reactivation at 200 uM by Ellman spectrophotometric method
[37] = target: Acetylcholinesterase (Homo sapiens) (UniProt P22303); experiment: Reactivation of tabun-inhibited human recombinant AChE using acetylthiocholine iodide as substrate by Ellman spectrophotometric method relative to control
[38] = target: Acetylcholinesterase (Homo sapiens) (UniProt P22303); experiment: Reactivation of VX-inhibited AChE in whole human blood assessed as VX degradation at 0.1 mM after 10 mins by spectrophotometric analysis
[39] = target: Acetylcholinesterase (Homo sapiens) (UniProt P22303); experiment: Reactivation of tabun-inhibited human recombinant AChE using acetylthiocholine iodide as substrate assessed as time required for maximal percentage of reactivation by Ellman spectrophotometric method
[40] = target: T1, Cholinesterases; ACHE & BCHE (Homo sapiens); experiment: Selectivity ratio of Ki for human plasma BChE to Ki for recombinant human AChE

The chains behind the UniProt entries cited, without tags or fusion partners. Where a name states a change or a piece, a line headed by the entry shows the natural chain unless it says otherwise.
UniProt P22303: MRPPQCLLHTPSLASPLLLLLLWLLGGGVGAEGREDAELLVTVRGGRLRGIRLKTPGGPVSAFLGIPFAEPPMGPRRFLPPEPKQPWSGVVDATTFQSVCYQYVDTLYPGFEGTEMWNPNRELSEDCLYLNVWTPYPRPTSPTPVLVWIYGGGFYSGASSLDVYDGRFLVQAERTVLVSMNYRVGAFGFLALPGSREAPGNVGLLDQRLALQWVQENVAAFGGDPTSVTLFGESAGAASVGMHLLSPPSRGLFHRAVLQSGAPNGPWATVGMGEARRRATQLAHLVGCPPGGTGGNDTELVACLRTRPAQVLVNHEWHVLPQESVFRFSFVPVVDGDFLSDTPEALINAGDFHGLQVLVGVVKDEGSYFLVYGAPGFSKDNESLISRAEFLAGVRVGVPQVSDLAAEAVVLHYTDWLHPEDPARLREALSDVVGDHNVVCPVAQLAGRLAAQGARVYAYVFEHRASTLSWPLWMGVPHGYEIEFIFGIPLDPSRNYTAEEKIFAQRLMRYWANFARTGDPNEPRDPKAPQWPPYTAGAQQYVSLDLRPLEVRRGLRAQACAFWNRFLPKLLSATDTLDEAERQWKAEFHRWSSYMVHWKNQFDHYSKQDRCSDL
UniProt P06276, whole entry, looked up: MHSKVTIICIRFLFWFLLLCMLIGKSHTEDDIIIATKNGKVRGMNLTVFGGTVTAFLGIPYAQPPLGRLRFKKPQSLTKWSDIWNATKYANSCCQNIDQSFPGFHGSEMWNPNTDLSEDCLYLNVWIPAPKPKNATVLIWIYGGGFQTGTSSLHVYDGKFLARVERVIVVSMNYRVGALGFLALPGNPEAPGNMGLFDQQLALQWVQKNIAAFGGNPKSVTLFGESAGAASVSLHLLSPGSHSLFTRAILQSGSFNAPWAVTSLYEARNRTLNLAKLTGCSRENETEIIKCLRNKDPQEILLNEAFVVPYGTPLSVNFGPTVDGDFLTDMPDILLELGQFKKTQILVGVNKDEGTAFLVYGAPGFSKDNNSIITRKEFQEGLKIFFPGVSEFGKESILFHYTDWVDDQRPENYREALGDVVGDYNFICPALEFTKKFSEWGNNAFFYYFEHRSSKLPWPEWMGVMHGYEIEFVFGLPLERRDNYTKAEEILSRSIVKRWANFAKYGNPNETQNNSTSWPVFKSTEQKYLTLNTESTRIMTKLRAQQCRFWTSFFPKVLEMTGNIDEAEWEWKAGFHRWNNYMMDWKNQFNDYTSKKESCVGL

NC(=O)c1cc[n+](CCC[n+]2ccc(/C=N/O)cc2)cc1
%max [1]: 100% | K [2]: 60.7 M⁻¹ s⁻¹ | Activity [3]: 80 to 85% | %max [4]: 80% | Activity [5]: 80 to 85% | TIME [6]: 0.333 h | K [7]: 19.7 M⁻¹ s⁻¹ | Activity [8]: < 25% | Ratio Ki [9]: 9 | TIME [10]: 0.0833 h | Activity [11]: < 25% | %max [12]: 100% | Activity [13]: 80 to 85% | K [14]: 48.3 M⁻¹ s⁻¹ | K [15]: 1.2 min⁻¹ | Activity [16]: < 25% | TIME [17]: 0.333 h | K [18]: 1.1 min⁻¹ | K [19]: 1.2 min⁻¹ | K [20]: 920 µM | K [21]: 0.032 min⁻¹ | Activity [22]: 80 to 85% | K [23]: 320 µM | %max [24]: 100% | K [25]: 400 µM | K [26]: 6.33 M⁻¹ s⁻¹ | TIME [27]: 3 h | K [28]: 85 µM | Activity [29]: < 25%

NC(=O)c1cc[n+](CCC[n+]2cc(Cl)c(/C=N/O)c(Cl)c2)cc1
K [2]: 200 M⁻¹ s⁻¹ | %max [4]: 80% | TIME [6]: 0.167 h | K [7]: 128 M⁻¹ s⁻¹ | TIME [10]: 0.0167 h | Activity [30]: Active | %max [12]: 100% | Activity [31]: Active | K [14]: 432 M⁻¹ s⁻¹ | Activity [32]: Active | K [15]: 0.43 min⁻¹ | %max [33]: 100% | Activity [34]: Active | Activity [35]: Active | TIME [36]: 0.167 h | K [18]: 0.53 min⁻¹ | %max [37]: 20% | K [19]: 4.2 min⁻¹ | K [20]: 70 µM | Activity [38]: Active | K [23]: 35 µM | TIME [39]: 24 h | K [25]: 160 µM | Ratio Ki [40]: 9.3

— ChEMBL document CHEMBL4257577, “Pyridinium Oximes with Ortho-Positioned Chlorine Moiety Exhibit Improved Physicochemical Properties and Efficient Reactivation of Human Acetylcholinesterase Inhibited by Several Nerve Agents” (2018)
